Source: ChEMBL document CHEMBL1137342 (J Med Chem, 2006)

Protein sequences, listed by entry. Tags and fused reporters are not part of them.
UniProt P21728, whole entry: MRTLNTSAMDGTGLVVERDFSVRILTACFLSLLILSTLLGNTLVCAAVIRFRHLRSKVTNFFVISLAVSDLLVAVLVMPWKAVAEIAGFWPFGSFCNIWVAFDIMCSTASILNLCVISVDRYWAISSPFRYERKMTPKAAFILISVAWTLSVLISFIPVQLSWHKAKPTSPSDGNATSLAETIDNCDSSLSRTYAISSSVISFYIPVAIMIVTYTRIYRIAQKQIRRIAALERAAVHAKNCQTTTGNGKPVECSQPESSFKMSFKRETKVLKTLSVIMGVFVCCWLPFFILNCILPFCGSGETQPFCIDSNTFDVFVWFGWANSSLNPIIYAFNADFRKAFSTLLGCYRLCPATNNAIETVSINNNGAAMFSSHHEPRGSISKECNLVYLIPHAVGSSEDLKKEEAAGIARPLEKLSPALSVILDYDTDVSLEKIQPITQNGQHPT

Key:
[1] = target: T1, D(1A) dopamine receptor (Homo sapiens, UniProt P21728); assay: Activity at human dopamine D1 receptor expressed in HEK293 cells assessed as stimulation of cAMP production; type: functional, cell-based
[2] = target: T1, D(1A) dopamine receptor; assay: Binding affinity to human cloned dopamine D1 receptor

| EC50 [1] [µM] | Ki [2] [µM] | Compound |
| --- | --- | --- |
| 0.029 |  | Oc1cc2c(cc1O)[C@H]1c3ccccc3CN[C@@H]1CO2 (single isomer, unassigned) |
| 1.1 |  | Oc1cc2c(cc1O)[C@@H]1c3ccccc3CN[C@H]1CO2 (single isomer, unassigned) |
| 0.032 | 0.098 | Oc1cc2c(cc1O)C1c3ccccc3CNC1CO2 (racemic) [DOXANTHRINE] |
